Amino acid sequences for entries named in this document (tags omitted). A change or cut given only in a name is not applied to a line headed by its entry.
UniProt P09874, whole entry: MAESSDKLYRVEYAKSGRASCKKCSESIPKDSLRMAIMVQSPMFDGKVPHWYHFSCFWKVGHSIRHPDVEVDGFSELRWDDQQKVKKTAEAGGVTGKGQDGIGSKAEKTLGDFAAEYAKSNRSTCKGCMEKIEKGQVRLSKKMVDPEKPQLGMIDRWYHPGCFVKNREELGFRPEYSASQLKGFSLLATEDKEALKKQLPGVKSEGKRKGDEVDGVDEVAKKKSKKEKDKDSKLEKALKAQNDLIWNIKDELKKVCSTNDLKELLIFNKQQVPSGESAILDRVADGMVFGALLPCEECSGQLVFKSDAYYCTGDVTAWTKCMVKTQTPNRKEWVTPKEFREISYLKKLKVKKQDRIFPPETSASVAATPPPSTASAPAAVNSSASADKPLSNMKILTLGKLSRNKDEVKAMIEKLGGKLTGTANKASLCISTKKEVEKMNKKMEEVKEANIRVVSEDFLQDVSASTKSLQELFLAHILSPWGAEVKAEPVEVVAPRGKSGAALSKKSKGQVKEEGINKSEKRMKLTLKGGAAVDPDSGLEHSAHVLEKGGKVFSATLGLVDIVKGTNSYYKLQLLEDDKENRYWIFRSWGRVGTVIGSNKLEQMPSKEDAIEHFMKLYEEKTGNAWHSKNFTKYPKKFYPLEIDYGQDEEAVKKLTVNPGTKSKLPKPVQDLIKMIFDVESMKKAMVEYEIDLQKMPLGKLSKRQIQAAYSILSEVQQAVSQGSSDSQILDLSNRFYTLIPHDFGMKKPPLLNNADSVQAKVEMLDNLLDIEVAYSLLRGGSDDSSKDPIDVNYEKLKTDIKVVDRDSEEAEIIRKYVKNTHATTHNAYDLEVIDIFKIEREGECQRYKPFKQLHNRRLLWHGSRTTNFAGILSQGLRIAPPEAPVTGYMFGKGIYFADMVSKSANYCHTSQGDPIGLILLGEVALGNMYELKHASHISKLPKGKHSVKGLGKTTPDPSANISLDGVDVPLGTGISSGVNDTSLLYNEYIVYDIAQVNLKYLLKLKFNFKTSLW
UniProt Q9UGN5: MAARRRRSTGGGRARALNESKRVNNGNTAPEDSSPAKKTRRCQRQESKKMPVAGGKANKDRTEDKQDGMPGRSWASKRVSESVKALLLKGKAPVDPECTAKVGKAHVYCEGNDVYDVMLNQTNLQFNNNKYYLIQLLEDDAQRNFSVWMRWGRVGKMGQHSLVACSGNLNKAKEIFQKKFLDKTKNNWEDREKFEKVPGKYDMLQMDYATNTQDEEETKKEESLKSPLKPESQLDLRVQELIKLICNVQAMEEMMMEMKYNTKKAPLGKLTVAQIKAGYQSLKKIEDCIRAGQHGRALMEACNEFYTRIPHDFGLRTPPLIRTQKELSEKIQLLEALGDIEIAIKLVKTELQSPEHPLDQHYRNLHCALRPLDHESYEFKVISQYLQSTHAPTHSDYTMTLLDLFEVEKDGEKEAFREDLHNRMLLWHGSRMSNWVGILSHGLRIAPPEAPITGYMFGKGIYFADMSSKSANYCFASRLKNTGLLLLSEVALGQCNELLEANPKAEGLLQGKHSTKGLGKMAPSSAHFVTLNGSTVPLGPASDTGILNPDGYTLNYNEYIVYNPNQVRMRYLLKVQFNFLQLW

According to ChEMBL document CHEMBL5512675, “Design of Selective PARP-1 Inhibitors and Antitumor Studies” (J Med Chem, 2024):

Legend:
[1] = biological target: Poly [ADP-ribose] polymerase 1 (Homo sapiens, UniProt P09874); conditions: dose 100.0 nM, time 30.0 min
in vivo [2] = conditions: male, Sprague-Dawley, rat, po, 20 mg/kg
in vivo [3] = conditions: male, Sprague-Dawley, rat, po, 20 mg/kg; remark: listed apart in the source
in vivo [4] = conditions: male, Sprague-Dawley, rat, iv, 4 mg/kg
SK-OV-3 [5] = test: animal or person; conditions: Mus musculus, SK-OV-3, po, 744 h, read-out: TGI
in vivo [6] = conditions: male, Sprague-Dawley, rat, po, 20 mg/kg; remark: listed apart in the source
in vivo [7] = conditions: male, Sprague-Dawley, rat, iv, 4 mg/kg; remark: listed apart in the source
in vivo [8] = conditions: male, Sprague-Dawley, rat, po, 20 mg/kg; remark: listed apart in the source
SK-OV-3 [9] = test: cells; conditions: Homo sapiens, SK-OV-3, 36 h, read-out: Activity
in vivo [10] = conditions: male, Sprague-Dawley, rat, iv, 4 mg/kg; remark: listed apart in the source
in vivo [11] = conditions: male, Sprague-Dawley, rat, iv, 4 mg/kg; remark: listed apart in the source
in vivo [12] = conditions: male, Sprague-Dawley, rat, po, 20 mg/kg; remark: listed apart in the source
in vivo [13] = conditions: male, Sprague-Dawley, rat, po, 20 mg/kg; remark: listed apart in the source
in vivo [14] = conditions: male, Sprague-Dawley, rat, iv, 4 mg/kg; remark: listed apart in the source
SK-OV-3 [15] = test: cells; conditions: Homo sapiens, SK-OV-3, 36 h, read-out: Activity; remark: listed apart in the source
SK-OV-3 [16] = test: animal or person; conditions: Mus musculus, SK-OV-3, po, 744 h, read-out: TGI; remark: listed apart in the source
in vivo [17] = conditions: male, Sprague-Dawley, rat, po, 20 mg/kg; remark: listed apart in the source
[18] = biological target: Poly [ADP-ribose] polymerase 2 (Homo sapiens, UniProt Q9UGN5); test: Inhibition of GST-tagged human PARP2 incubated for 30 mins by chemiluminescence based UV/visible spectrophotometric analysis
SK-OV-3 [19] = test: cells; conditions: Homo sapiens, SK-OV-3, 36 h, read-out: Activity; remark: listed apart in the source
in vivo [20] = conditions: male, Sprague-Dawley, rat, iv, 4 mg/kg; remark: listed apart in the source
in vivo [21] = conditions: male, Sprague-Dawley, rat, iv, 4 mg/kg; remark: listed apart in the source
in vivo [22] = conditions: male, Sprague-Dawley, rat, iv, 4 mg/kg; remark: listed apart in the source

For COc1cc(-c2nc3c(C(N)=O)cccc3[nH]2)ccc1OC(=O)c1ccccc1C(F)(F)F, the inhibition [1] was 40.1%.
COc1cc(/C=N/NC(N)=S)ccc1OS(=O)(=O)c1c(C)cc(C)cc1C gave an inhibition [1] of 42.5%.
COc1cc(-c2nc3c(C(N)=O)cccc3[nH]2)ccc1OS(=O)(=O)c1cccc(Br)c1 showed an inhibition [1] of under 5%.
COc1cc(-c2nc3c(C(N)=O)cccc3[nH]2)c(Br)c(Br)c1OS(=O)(=O)c1ccc(NC(C)=O)cc1 showed an inhibition [1] of 45.7%.
Compound COc1cc(-c2nc3c(C(N)=O)cccc3[nH]2)cc(Br)c1OS(=O)(=O)c1cccc(Br)c1 has an inhibition [1] of 41.9%.
With CCCCOc1c(Br)cc(/C=N/NC(N)=S)cc1OC the inhibition [1] was 41%.
With COc1cc(-c2nc3c(C(N)=O)cccc3[nH]2)cc(Br)c1OS(=O)(=O)c1cccc2ccccc12 the inhibition [1] was 40.3%.
COc1cc(-c2nc3c(C(N)=O)cccc3[nH]2)ccc1OS(=O)(=O)c1c(C)cc(C)cc1C showed an inhibition [1] of under 5%.
In the case of COc1cc(/C=N/NC(N)=S)cc(Br)c1OS(=O)(=O)C(F)(F)F, the inhibition [1] is reported as 13.5%.
COc1cc(-c2nc3c(C(N)=O)cccc3[nH]2)c(Br)c(Br)c1OCc1ccc(Br)cc1 gave an inhibition [1] of 42.8%.
In the case of COc1cc(-c2nc3c(C(N)=O)cccc3[nH]2)c(Br)c(Br)c1OC, the inhibition [1] is reported as 41.7%.
COc1cc(-c2nc3c(C(N)=O)cccc3[nH]2)c(Br)c(Br)c1OS(=O)(=O)c1ccc(C)cc1 showed an inhibition [1] of 45.7%.
COc1cc(/C=N/NC(N)=S)c(Br)c(Br)c1OCc1ccc(C)cc1 showed an inhibition [1] of 35.4%.
COc1cc(/C=N/NC(N)=S)c(Br)c(Br)c1OC(=O)c1ccc(Br)cc1 showed an inhibition [1] of 8.21%.
Compound COc1cc(/C=N/NC(N)=S)c(Br)c(Br)c1OC(=O)c1ccco1 has an inhibition [1] of 43.2%.
COc1cc(-c2nc3c(C(N)=O)cccc3[nH]2)c(Br)c(Br)c1OS(=O)(=O)c1ccc(OC(F)(F)F)cc1 showed an inhibition [1] of 44.3%.
With COc1cc(-c2nc3c(C(N)=O)cccc3[nH]2)c(Br)c(Br)c1OCc1ccccc1C(F)(F)F the inhibition [1] was 42.5%.
COc1cc(-c2nc3c(C(N)=O)cccc3[nH]2)c(Br)c(Br)c1OC(=O)c1ccc(F)cc1 showed an inhibition [1] of 47.8%.
Compound COc1cc(-c2nc3c(C(N)=O)cccc3[nH]2)cc(Br)c1OC(=O)C(C)(C)C has an inhibition [1] of 62.9%.
CCc1ccc(C(=O)Oc2c(OC)cc(-c3nc4c(C(N)=O)cccc4[nH]3)c(Br)c2Br)cc1 gave an inhibition [1] of 45.1%.
COc1cc(-c2nc3c(C(N)=O)cccc3[nH]2)c(Br)c(Br)c1OS(=O)(=O)c1ccc(F)c(Cl)c1 gave an inhibition [1] of 48.1%.
Compound COc1cc(-c2nc3c(C(N)=O)cccc3[nH]2)ccc1OS(=O)(=O)c1ccc(Br)cc1 has an inhibition [1] of 32.5%.
For COc1cc(-c2nc3c(C(N)=O)cccc3[nH]2)c(Br)c(Br)c1OC(C)=O, the inhibition [1] was 42.6%.
COc1cc(/C=N/NC(N)=S)c(Br)c(Br)c1OC(=O)c1ccc(CCl)cc1 showed an inhibition [1] of 23.4%.
CCCS(=O)(=O)Oc1c(Br)cc(-c2nc3c(C(N)=O)cccc3[nH]2)cc1OC gave an inhibition [1] of 66%.
Work on COc1ccc(S(=O)(=O)Oc2c(Br)cc(-c3nc4c(C(N)=O)cccc4[nH]3)cc2OC)cc1 yielded an inhibition [1] of 44.1%.
COc1cc(-c2nc3c(C(N)=O)cccc3[nH]2)cc(Br)c1OS(=O)(=O)c1c(C)cc(C)cc1C showed an inhibition [1] of 61.6%.
In the case of CCCS(=O)(=O)Oc1c(OC)cc(/C=N/NC(N)=S)c(Br)c1Br, the inhibition [1] is reported as 23.7%.
COc1cc(/C=N/NC(N)=S)ccc1OS(=O)(=O)C(F)(F)F gave an inhibition [1] of 13.5%.
COc1cc(-c2nc3c(C(N)=O)cccc3[nH]2)cc(Br)c1OS(=O)(=O)c1ccccc1C gave a Tmax (in vivo [2]) of 30 min, an AUC(0-t) (in vivo [3]) of 88.8 ng·h/mL and an MRT (in vivo [4]) of 16.8 min. The inhibition in vivo at 25 mg/kg (SK-OV-3 [5]) was 66.3%, the AUC(0-inf) (in vivo [6]) was 103 ng·h/mL and the AUC(0-t) (in vivo [7]) was 1030 ng·h/mL. The half-life (in vivo [8]) was 94.2 min, the viability at 10 µM (SK-OV-3 [9]) was 51.8% and the Vd (in vivo [10]) was 1.19 L/kg. It also gave a Tmax (in vivo [11]) of 4.8 min, an MRT (in vivo [12]) of 102 min and a Cmax (in vivo [13]) of 42 ng/mL. For the same compound, the Cmax (in vivo [14]) was 2210 ng/mL, the viability at 5 µM (SK-OV-3 [15]) was 73.9% and the inhibition in vivo at 50 mg/kg (SK-OV-3 [16]) was 77.3%. It also gave a bioavailability (in vivo [17]) of 2.49%, an IC50 [18] of 1.93 µM and a viability at 20 µM (SK-OV-3 [19]) of 36.5%. The AUC(0-inf) (in vivo [20]) was 1040 ng·h/mL, the half-life (in vivo [21]) was 19.2 min and the clearance (in vivo [22]) was 67 mL/min/kg.
COc1cc(-c2nc3c(C(N)=O)cccc3[nH]2)cc(Br)c1OC(=O)CCBr gave an inhibition [1] of 43.5%.
Compound COc1cc(/C=N/NC(N)=S)cc(Br)c1OC(C)=O has an inhibition [1] of 28.3%.
Work on COc1cc(-c2nc3c(C(N)=O)cccc3[nH]2)cc(Br)c1OS(=O)(=O)c1ccc(I)cc1 yielded an inhibition [1] of 42.1%.
Compound COc1cc(/C=N/NC(N)=S)c(Br)c(Br)c1OCc1ccc(Br)cc1 has an inhibition [1] of 47.4%.
COc1cc(-c2nc3c(C(N)=O)cccc3[nH]2)c(Br)c(Br)c1OC(=O)CCBr gave an inhibition [1] of 36.4%.
Compound COc1cc(/C=N/NC(N)=S)cc(Br)c1OC(=O)C(C)(C)C has an inhibition [1] of 35.1%.
